Measured values published in patent US11497752B2, “Compounds and uses thereof” (Foghorn Therapeutics Inc., priority 2018, dated 2022).

Protein sequences, listed by entry. Tags and fused reporters are not part of them.
UniProt P51531, whole entry: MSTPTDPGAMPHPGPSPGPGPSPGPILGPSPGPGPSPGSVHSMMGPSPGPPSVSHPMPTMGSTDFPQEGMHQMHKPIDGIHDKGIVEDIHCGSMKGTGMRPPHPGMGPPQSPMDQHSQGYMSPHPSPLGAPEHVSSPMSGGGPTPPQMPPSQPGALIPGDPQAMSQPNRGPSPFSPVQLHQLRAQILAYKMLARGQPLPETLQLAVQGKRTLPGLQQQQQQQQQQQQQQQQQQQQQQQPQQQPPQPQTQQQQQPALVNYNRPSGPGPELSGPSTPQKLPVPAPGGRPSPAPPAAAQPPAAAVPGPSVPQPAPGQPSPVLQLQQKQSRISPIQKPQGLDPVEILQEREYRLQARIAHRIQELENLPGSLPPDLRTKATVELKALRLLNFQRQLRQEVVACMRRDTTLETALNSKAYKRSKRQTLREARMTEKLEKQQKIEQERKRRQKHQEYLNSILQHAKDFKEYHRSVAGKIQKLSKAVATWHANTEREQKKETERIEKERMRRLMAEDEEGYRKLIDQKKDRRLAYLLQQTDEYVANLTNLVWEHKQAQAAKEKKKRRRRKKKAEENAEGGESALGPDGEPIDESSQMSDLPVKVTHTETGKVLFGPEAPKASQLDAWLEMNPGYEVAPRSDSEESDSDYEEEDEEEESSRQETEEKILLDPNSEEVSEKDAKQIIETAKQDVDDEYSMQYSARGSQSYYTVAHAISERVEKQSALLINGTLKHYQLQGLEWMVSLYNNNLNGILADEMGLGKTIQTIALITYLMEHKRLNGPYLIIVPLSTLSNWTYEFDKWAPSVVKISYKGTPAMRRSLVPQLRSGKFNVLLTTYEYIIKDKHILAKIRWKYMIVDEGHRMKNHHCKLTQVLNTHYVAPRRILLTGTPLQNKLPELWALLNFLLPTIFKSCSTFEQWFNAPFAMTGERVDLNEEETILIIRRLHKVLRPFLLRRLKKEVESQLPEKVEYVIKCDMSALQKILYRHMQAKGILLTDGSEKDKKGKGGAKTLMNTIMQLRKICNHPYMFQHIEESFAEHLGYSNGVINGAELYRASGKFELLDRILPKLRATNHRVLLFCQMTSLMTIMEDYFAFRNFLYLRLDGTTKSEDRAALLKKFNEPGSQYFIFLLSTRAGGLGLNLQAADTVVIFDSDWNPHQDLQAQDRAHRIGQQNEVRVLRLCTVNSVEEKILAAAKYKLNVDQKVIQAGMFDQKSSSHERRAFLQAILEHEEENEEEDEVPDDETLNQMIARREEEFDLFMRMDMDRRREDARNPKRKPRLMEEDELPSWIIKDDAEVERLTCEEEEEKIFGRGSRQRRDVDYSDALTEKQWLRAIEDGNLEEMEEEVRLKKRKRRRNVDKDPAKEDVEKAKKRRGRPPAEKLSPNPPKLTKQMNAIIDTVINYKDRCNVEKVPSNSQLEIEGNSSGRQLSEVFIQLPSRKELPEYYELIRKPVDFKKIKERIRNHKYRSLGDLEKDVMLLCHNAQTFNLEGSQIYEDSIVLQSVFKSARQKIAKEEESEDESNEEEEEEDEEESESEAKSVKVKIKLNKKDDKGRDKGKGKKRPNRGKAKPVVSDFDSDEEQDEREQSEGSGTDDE
UniProt P51532, whole entry: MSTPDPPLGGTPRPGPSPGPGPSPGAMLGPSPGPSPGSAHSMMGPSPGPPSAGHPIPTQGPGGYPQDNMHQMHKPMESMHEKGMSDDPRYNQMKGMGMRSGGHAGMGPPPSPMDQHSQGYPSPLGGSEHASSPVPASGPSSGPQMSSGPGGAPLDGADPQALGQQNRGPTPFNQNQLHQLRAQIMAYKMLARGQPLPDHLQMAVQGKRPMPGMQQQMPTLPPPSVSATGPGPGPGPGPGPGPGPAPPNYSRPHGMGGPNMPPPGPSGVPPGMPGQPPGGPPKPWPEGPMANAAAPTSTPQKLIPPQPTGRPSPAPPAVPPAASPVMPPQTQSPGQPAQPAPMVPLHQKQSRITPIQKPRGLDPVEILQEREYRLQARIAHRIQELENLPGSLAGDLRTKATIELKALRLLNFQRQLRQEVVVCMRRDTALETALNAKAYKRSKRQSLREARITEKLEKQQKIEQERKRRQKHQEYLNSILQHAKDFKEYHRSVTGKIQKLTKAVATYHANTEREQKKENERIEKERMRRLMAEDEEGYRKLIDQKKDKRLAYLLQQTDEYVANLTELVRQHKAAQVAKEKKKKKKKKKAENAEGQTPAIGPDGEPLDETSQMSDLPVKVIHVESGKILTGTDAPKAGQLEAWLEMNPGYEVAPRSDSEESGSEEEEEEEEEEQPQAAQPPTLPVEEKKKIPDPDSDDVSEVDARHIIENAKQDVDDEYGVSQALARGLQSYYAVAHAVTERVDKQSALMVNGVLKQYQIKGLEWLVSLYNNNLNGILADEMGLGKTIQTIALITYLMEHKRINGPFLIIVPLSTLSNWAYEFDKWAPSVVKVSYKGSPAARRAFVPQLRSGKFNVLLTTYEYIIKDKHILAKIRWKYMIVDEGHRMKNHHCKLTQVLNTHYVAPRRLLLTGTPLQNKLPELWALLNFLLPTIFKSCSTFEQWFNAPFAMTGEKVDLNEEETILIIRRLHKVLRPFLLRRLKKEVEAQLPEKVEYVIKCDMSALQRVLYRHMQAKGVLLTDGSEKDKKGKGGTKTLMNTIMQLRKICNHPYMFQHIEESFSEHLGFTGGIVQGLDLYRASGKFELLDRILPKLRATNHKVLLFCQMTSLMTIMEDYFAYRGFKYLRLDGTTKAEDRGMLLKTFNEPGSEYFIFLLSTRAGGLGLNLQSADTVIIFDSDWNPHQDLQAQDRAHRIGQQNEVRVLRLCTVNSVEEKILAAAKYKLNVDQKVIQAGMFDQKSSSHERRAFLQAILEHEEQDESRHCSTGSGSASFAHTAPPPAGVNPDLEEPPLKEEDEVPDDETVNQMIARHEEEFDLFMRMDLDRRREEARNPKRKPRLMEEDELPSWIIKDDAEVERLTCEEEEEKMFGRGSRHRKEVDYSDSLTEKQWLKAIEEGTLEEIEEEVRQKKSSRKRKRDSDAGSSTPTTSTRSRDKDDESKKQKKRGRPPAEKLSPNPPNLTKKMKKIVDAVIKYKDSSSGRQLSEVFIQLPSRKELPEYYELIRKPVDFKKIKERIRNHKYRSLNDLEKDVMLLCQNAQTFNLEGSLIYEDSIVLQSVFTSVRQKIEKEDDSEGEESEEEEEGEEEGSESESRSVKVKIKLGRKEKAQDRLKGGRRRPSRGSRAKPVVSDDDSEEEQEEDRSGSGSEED

Columns and labels:
[1] = target: BRM (Homo sapiens, UniProt P51531); assay: ATPase catalytic activity of BRM (ADP-Glo in vitro biochemical assay)
[2] = target: BRG-1 (Homo sapiens, UniProt P51532); assay: ATPase catalytic activity of BRG-1 (ADP-Glo in vitro biochemical assay); conditions: for BRG1 Max % Inhibition: Table 5

Structure (SMILES)	IC50 [1] [nM]	BRM Max % Inhibition ([1]; Table 5) [%]	BRG1 Max % Inhibition [2] [%]	other results
C[C@H](NC(=O)c1cccc(S(=O)(=O)N(C)C)c1)C(=O)Nc1nc(-c2ccccc2)cs1 [Compound 12, (S)-3-(N,N-dimethylsulfamoyl)-N-(1-oxo-1-((4-phenylthiazol-2-yl)amino)propan-2-yl)benzamide]	1000 to 10000	>80	>60	IC50 [2]: > 10000 nM
CSCC[C@H](NC(=O)c1cccs1)C(=O)Nc1nc(-c2ccccc2)cs1 [Compound 58, N-[(1S)-3-methylsulfanyl-1-[(4-phenylthiazol-2-yl)carbamoyl]propyl]thiophene-2-carboxamide]	1000 to 10000			
CCC[C@H](NC(=O)c1ccccc1)C(=O)Nc1nc(-c2ccccc2)cs1 [Compound 51, N-[(1S)-1-[(4-phenylthiazol-2-yl)carbamoyl]butyl]benzamide]		>90	>80	
CSCC[C@H](NC(=O)c1ccc(N)cc1)C(=O)Nc1nc(-c2ccccc2)cs1 [Compound 52, 4-amino-N-[(1S)-3-methylsulfanyl-1-[(4-phenylthiazol-2-yl)carbamoyl]propyl]benzamide]	< 1000			
O=C(N[C@@H](CCc1ccccc1)C(=O)Nc1nc(-c2ccccc2)cs1)c1ccccc1 [Compound 49, N-[(1S)-3-phenyl-1-[(4-phenylthiazol-2-yl)carbamoyl]propyl]benzamide]		>50	>30	
CSCC[C@H](NC(=O)c1ccc(O)cc1)C(=O)Nc1nc(-c2ccccc2)cs1 [Compound 53, 4-hydroxy-N-[(1S)-3-methylsulfanyl-1-[(4-phenylthiazol-2-yl)carbamoyl]propyl]benzamide]		>95	>90	
CC(C)CC[C@H](NC(=O)c1ccccc1)C(=O)Nc1nc(-c2ccccc2)cs1 [Compound 46, N-[(1S)-4-methyl-1-[(4-phenylthiazol-2-yl)carbamoyl]pentyl]benzamide]		>60	>70	
CC[C@H](NC(=O)c1ccccc1)C(=O)Nc1nc(-c2ccccc2)cs1 [Compound 45, N-[(1S)-1-[(4-phenylthiazol-2-yl)carbamoyl]propyl]benzamide]	> 10000			
CSCC[C@H](NC(=O)c1ccc(N)cc1)C(=O)Nc1nc(-c2cccc(-c3ccncc3)c2)cs1 [Compound 87, (S)-4-amino-N-(4-(methylthio)-1-oxo-1-((4-(3-(pyridin-4-yl)phenyl)thiazol-2-yl)amino)butan-2-yl)benzamide]	< 100			BRM Max % Inhibition ([1]; Table 6): >95%
CSCC[C@H](NC(=O)c1ccccc1N)C(=O)Nc1nc(-c2ccccc2)cs1 [Compound 63, 2-amino-N-[(1S)-3-methylsulfanyl-1-[(4-phenylthiazol-2-yl)carbamoyl]propyl]benzamide]	> 10000			
CSCC[C@@H](NC(=O)c1ccc(N)cc1)C(=O)Nc1nc(-c2cccc(-c3ccncc3)c2)cs1 [Compound 155, (R)-4-amino-N-(4-(methylthio)-1-oxo-1-((4-(3-(pyridin-4-yl)phenyl)thiazol-2-yl)amino)butan-2-yl)benzamide]	100 to 1000			
